Test results taken from US11656182B2, “Method, composition, and chip for detecting analyte in blood sample” (TERUMO KABUSHIKI KAISHA, priority 2016, dated 2023).

Assay: Degree of solubility with respect to water at 20° C.
Type: physicochemical

SMILES	Degree of solubility (class)
COc1cc([N+](=O)[O-])ccc1-n1nc(-c2ccc(S(=O)(=O)[O-])cc2S(=O)(=O)[O-])n[n+]1-c1ccc([N+](=O)[O-])cc1.[Na+] [Wst-8, 2-(2-methoxy-4-nitrophenyl)-3-(4-nitrophenyl)-5-(2,4-disulfophenyl)-2H-tetrazolium sodium salt, reference compound]	×
O=[N+]([O-])c1ccc(-[n+]2nc(-c3ccc(S(=O)(=O)[O-])cc3S(=O)(=O)[O-])nn2-c2ccc(I)cc2)cc1.[Na+] [Wst-1, 2-(4-iodophenyl)-3-(4-nitrophenyl)-5-(2,4-disulfophenyl)-2H-tetrazolium sodium salt, reference compound]	×
